From ChEMBL document CHEMBL4665659, “Utilizing comprehensive and mini-kinome panels to optimize the selectivity of quinoline inhibitors for cyclin G associated kinase (GAK)” (Bioorg Med Chem Lett, 2019)
pKd: −log10 of the molar value.

Target: T1, Cyclin-G-associated kinase (Homo sapiens, UniProt O14976)
T1 sequence (O14976 whole entry): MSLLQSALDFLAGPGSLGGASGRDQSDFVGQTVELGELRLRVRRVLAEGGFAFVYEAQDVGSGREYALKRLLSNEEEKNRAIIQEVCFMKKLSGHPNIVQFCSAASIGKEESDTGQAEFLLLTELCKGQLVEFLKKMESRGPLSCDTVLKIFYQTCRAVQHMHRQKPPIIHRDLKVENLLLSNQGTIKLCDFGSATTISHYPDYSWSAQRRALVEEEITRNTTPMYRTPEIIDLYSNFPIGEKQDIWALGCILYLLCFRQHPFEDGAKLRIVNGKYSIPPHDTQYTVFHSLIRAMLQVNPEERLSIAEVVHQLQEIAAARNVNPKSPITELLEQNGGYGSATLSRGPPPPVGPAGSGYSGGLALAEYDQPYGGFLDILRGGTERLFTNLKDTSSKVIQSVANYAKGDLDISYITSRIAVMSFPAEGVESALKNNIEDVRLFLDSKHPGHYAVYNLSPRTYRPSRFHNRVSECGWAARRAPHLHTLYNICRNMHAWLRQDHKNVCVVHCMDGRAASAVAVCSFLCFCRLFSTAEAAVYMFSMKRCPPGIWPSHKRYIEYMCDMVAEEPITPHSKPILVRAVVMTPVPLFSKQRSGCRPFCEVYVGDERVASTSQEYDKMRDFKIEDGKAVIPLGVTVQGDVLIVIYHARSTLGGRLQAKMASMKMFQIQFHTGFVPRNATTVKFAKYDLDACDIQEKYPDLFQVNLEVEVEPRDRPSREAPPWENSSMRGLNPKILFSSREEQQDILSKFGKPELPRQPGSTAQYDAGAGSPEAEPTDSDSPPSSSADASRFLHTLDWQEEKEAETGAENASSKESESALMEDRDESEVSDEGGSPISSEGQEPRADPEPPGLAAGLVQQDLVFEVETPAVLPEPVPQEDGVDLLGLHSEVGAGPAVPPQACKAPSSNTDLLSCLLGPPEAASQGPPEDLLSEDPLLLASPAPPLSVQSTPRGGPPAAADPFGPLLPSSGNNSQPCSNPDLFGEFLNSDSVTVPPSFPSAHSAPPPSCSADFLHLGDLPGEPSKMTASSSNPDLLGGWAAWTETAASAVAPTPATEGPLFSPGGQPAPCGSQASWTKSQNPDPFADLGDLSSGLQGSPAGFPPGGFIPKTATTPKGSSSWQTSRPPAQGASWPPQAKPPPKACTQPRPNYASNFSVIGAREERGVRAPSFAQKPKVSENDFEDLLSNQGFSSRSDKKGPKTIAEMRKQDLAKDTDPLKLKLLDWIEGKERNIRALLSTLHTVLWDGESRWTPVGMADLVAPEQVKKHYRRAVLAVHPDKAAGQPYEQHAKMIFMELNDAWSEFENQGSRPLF
Assay: Binding affinity to human wild type partial length GAK (G13 to Y338 residues) expressed in bacterial expression system by KinomeScan method

For `COc1cc(Nc2ccnc3ccc(Br)cc23)cc(OC)c1OC`, the pKd was 8.39.
